# Measured values: US20230295259A1 (Protagonist Therapeutics, Inc., priority 2020, published 2023)
# Target: T1, human ferroportin (Homo sapiens, UniProt Q9NP59)
# T1 construct: expressed in transfected cells
# T1 sequence (Q9NP59 1-571): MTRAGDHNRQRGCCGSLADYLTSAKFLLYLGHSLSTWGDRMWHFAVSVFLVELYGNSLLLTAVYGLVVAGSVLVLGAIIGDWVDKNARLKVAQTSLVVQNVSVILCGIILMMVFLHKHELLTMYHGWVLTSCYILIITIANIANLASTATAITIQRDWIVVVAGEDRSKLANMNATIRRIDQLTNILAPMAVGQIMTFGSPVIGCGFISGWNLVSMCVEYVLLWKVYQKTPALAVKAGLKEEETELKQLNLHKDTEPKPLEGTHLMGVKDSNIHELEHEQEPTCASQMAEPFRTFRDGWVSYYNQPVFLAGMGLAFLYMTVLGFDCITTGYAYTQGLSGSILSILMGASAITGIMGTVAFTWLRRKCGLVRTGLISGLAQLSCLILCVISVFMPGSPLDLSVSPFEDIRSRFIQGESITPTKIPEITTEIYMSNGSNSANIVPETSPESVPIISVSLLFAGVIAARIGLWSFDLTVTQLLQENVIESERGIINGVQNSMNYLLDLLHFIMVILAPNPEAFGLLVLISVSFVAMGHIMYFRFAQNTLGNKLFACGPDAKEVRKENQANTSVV
# Test: FPN activity assay: internalization/degradation of ferroportin-GFP in stably transfected HEK293 cells (decrease in GFP fluorescence)
# Format: cell-based
# Conditions: Table 2A; HEK293 cells expressing human ferroportin-GFP, at least 18 hours incubation; read-out: FPN EC50
# Method: Following internalization, the ferroportin protein is degraded.
# A retro inverse peptide is a peptide with a reversed sequence in all D amino acids. An example is that Hy-Glu-Thr-His-NH2 becomes Hy-DHis-DThr-DGlu-NH2. The EC50 of these reference compounds for ferroportin internalization/degradation was determined according to the FPN activity assay described above. These peptides served as control standards.
# These values were determined as described herein.
row,Substance,DC50 [nM]
1,Isovaleric Acid-E-T-H-[Dpa]-P-[Cys]-I-[Lys(2Peg11′_Ahx_C18_Diacid)]-[bhPhe]-[(D)Lys]-[Cys]-NH2 [Compound 29],15.5
2,Isovaleric Acid-E-T-H-[Dpa]-P-[Cys]-I-[Lys(1Peg2_1Peg2_Ahx_Palm)]-[bhPhe]-[(D)Lys]-[Cys]-NH2 [Compound 64],17.5
3,Isovaleric Acid-E-T-H-[Dpa]-P-[Cys]-I-[(D)Lys]-[bhPhe]-[Lys(2Peg4_Ahx_Palm)]-[(D)Lys]-[Cys]-NH2 [Compound 69],8.9
4,Isovaleric Acid-E-T-H-[Dpa]-P-[Cys]-I-[(D)Lys]-[bhPhe]-[Lys(Ahx_Palm)]-[(D)Leu]-[Cys]-NH2 [Compound 90],18.8

# Target: T2, ferroportin (endogenously expressed in T47D cells) (Homo sapiens, UniProt Q9NP59)
# T2 construct: is a human breast carcinoma adherent cell line which endogenously expresses ferroportin; host or cells: T47D
# T2 sequence (Q9NP59 1-571): T1 sequence (Q9NP59 1-571)
# Test: T47D cell-based ferroportin internalization assay in presence of 0.5% mouse serum albumin (AF647-conjugated detection peptide, flow cytometry)
# Conditions: read-out: IC50: T47D Internalization MSA
row,Substance,IC50 [nM]
1,Isovaleric Acid-E-T-H-[Dpa]-P-[Cys]-I-[Lys(2Peg11′_IsoGlu_C14_Diacid)]-[bhPhe]-[(D)Lys]-[Cys]-NH2 [Compound 108],228
2,Isovaleric Acid-E-T-H-[Dpa]-P—C—I-[Lys(1PEG2_1PEG2_IsoGlu_C18_Diacid)]-[bhPhe]-[(D)Lys]-[Pen]-NH2 [Compound 281],86
3,Isovaleric Acid-E-T-H-[Dpa]-P-[Cys]-I-[(D)Lys]-[bhPhe]-[Lys(Ahx_Palm)]-[(Me)Lys]-[Cys]-NH2 [Compound 86],1.73
4,Isovaleric Acid-E-T-H-[Dpa]-P—C—I-[Lys(1PEG8_IsoGlu_C18_Diacid)]-[bhPhe]-[(D)Lys]-C—NH2 [Compound 238],46.1
5,Isovaleric Acid-Gla-T-H-[Dpa]-P—C—I-[Lys(1PEG2_1PEG2_IsoGlu_C18_Diacid)]-[bhPhe]-[(D)Lys]-C—NH2 [Compound 268],461
6,Isovaleric Acid-E-T-H-[Dpa]-P-[Cys]-I-[(D)Lys]-[bhPhe]-[(Me)Lys(Ahx_Palm)]-[(D)Lys]-[Cys]-NH2 [Compound 85],1.43
7,Isovaleric Acid-E-T-H-[Dpa]-P—C—I-[Lys(PEG12_C18 acid)]-[bhPhe]-[(D)Lys]-C—NH2 [Compound 306],0.99
8,Isovaleric Acid-E-T-H-[Dpa]-P-[Cys]-[(Me)Ile]-[(D)Lys]-[bhPhe]-[Lys(Ahx_Palm)]-[(D)Lys]-[Cys]-NH2 [Compound 82],4.34
9,Isovaleric Acid-E-T-H-[Dpa]-P-[(Me)Cys]-I-[(D)Lys]-[bhPhe]-[Lys(Ahx_Palm)]-[(D)Lys]-[Cys]-NH2 [Compound 81],4.98
10,Isovaleric Acid-E-T-H—F—P—C—I-[Lys(PEG12_C18 acid)]-F-E-P—R—S—K-G-[Pen]-K—NH2 [Compound 303],1.54
11,Isovaleric Acid-E-T-H-[Dpa]-P-[Cys]-I-[Lys(2Peg11′_IsoGlu_C18)]-[bhPhe]-[(D)Lys]-[Cys]-NH2 [Compound 112],0.92
12,Isovaleric Acid-E-T-H—F—P—C—I-[Lys(1PEG2_1PEG2_IsoGlu_C18_Diacid)]-F-E-P—R—S—K-G-C—NH2 [Compound 206],368
13,Isovaleric Acid-[Glu_OMe]-T-H-[Dpa]-P—C—I-[Lys(1PEG2_1PEG2_Ahx_C18_Diacid)]-[bhPhe]-[(D)Lys]-C—NH2 [Compound 277],36.4
14,Isovaleric Acid-E-T-H—F—P—C—I-[Lys(PEG12_Ahx_C18 acid)]-F-E-P—R—S—K-G-[Pen]-K—NH2 [Compound 304],1.58
15,Isovaleric Acid-E-T-H-[Dpa]-P—C—I-[Lys(1PEG2_1PEG2_1PEG2_C18_Diacid)]-[bhPhe]-[(D)Lys]-C—NH2 [Compound 254],23.2
16,Isovaleric Acid-E-T-H—F—P—C—I-[Lys(1PEG2_1PEG2_IsoGlu_C18_Diacid)]-F-E-P—R—S-G-C—NH2 [Compound 210],627
17,"Isovaleric Acid-E-T-H-[Phe(2,3-diF]-P—C—I-[Lys(1PEG2_1PEG2_IsoGlu_C18_Diacid)]-[bhPhe]-[(D)Lys]-C—NH2 [Compound 271]",112
18,Isovaleric Acid-E-T-H-[Dpa]-P—C—I-[Lys(PEG4_PEG4_IsoGlu_C18_Diacid)]-[bhF]-[(D)Lys]-C—NH2 [Compound 237],98.5
19,Isovaleric Acid-E-T-H—F—P—C—I-[Lys(PEG12_Ahx_C18_Diacid)]-F-E-P—R—S—K-G-[Pen]-K—NH2 [Compound 302],395
20,Isovaleric Acid-E-T-H-[Dpa]-P—C—I-[Lys(PEG12_C18_Diacid)]-[bhPhe]-[(D)Lys]-[Pen]-NH2 [Compound 315],29
21,Isovaleric Acid-E-T-H—F—P—C—I-[Lys(1PEG2_1PEG2_Ahx_C18_Diacid)]-F-E-P—R—S—K-G-C—K—NH2 [Compound 221],62.3
22,Isovaleric Acid-E-T-H—F—P—C—I-[Lys(IsoGlu_C18_Diacid)]-F-E-P—R—S—K-G-C—K—NH2 [Compound 222],> 1000

row,Substance,IC50 [nM]
1,Isovaleric Acid-E-T-H—F—P-[Cys]-I-Z_minus-F-E-P-R-S—K-G-[Cys]-K—NH2 [Compound 101],6.87
2,Isovaleric Acid-E-T-H—F—P—C—I-[Lys(IsoGlu_Palm)]-F-E-P-[Lys(Ac)]-S-G-C—NH2 [Compound 230],96.8
3,Isovaleric Acid-E-T-H—F—P—C—I-[Lys(Ahx_Palm)]-F-E-P—R—S—K-G-C—K—NH2 [Compound 223],1.8
4,Isovaleric Acid-E-T-H-[Dpa]-P-[Cys]-I-[Lys(2Peg4_Palm)]-[bhPhe]-[(D)Lys]-[Cys]-NH2 [Compound 39],1.5
5,Isovaleric Acid-E-T-H-[Dpa]-P—C—I-[Lys(1PEG2_1PEG2_Ahx_C18_Diacid)]-[bhPhe]-[(D)Lys]-[Pen]-NH2 [Compound 280],26.4
6,Isovaleric Acid-E-T-H—F—P—C—I-[Lys(IsoGlu_Palm)]-F-E-P-[Lys(Ac)]-S—K-G-[Pen]-K—NH2 [Compound 229],50.7
7,Isovaleric Acid-[(D)Glu]-T-H-[Dpa]-P—C—I-[Lys(1PEG2_1PEG2_Ahx_C18_Diacid)]-[bhPhe]-[(D)Lys]-C—NH2 [Compound 298],54.8
8,Isovaleric Acid-E-T-H—F—P—C—I-[Lys(PEG12_C18_Diacid)]-F-E-P—R—S—K-G-[Pen]-K—NH2 [Compound 301],343
9,Isovaleric Acid-E-T-H-[Dpa]-P-[Cys]-I-[(Me)Lys]-[bhPhe]-[Lys(Ahx_Palm)]-[(D)Lys]-[Cys]-NH2 [Compound 83],1.05
10,Isovaleric Acid-bhE-T-H-[Dpa]-P—C—I-[Lys(1PEG2_1PEG2_IsoGlu_C18_Diacid)]-[bhPhe]-[(D)Lys]-C—NH2 [Compound 267],566
11,Isovaleric Acid-E-T-H—F—P—C—I-[Lys(IsoGlu_Palm)]-F-E-P-[(D)Arg]-S—K-G-C—K—NH2 [Compound 227],18.1
12,Isovaleric Acid-E-T-H—F—P—C—I-[Lys(IsoGlu_Palm)]-F-E-P—R—S—K-G-[Pen]-K—NH2 [Compound 224],17
13,Isovaleric Acid-E-T-H-[Dpa]-P-[Cys]-I-[(D)Lys]-[(Me)Phe]-[Lys(Ahx_Palm)]-[(D)Lys]-[Cys]-NH2 [Compound 84],1.48
14,Isovaleric Acid-E-T-H-F—P—C—I-[Lys(IsoGlu_Palm)]-F-E-P—R-S—K-G-C—NH2 [Compound 225],13.9
15,Isovaleric Acid-E-T-H-[Dpa]-P—C—I-[(D)Lys(Acrylamide)]-[bhPhe]-[Lys(Ahx_Palm)]-[(D)Lys]-C—NH2 [Compound 283],2.2
16,Isovaleric Acid-E-T-H—F—P—C—I-[Lys(1PEG2_1PEG2_IsoGlu_C18_Diacid)]-F-E-P—R—S—K-G-C—K—NH2 [Compound 220],298
17,Isovaleric Acid-E-T-H-[Dpa]-P—C—I-[Lys(PEG12_C18_Diacid)]-[bhPhe]-[(D)Lys]-Abu-NH2 [Compound 308],281
18,Isovaleric Acid-E-T-H—F—P—C—I-[Lys(IsoGlu_Palm)]-F-E-P—R-S-G-C—NH2 [Compound 226],37.2
19,Isovaleric Acid-E-T-H-[Dpa]-P-[Cys]-I-[(D)Lys]-[bhPhe]-[Lys(Ahx_Palm)]-[(D)Lys]-[(Me)Cys]-NH2 [Compound 87],1.64
20,Acrylic_Acid-E-T-H-[Dpa]-P—C—I-[(D)Lys]-[bhPhe]-[Lys(Ahx_Palm)-[(D)Lys]-C—NH2 [Compound 284],13.5
21,Isovaleric Acid-E-T-H-[Dpa]-P—C—I-[Lys(PEG12_IsoGlu_C18_Diacid)]-[bhPhe]-[(D)Lys(PEG11_OMe)]—C—NH2 [Compound 292],628
22,Isovaleric Acid-E-T-H-F-P—C—I-[Lys(1PEG2_1PEG2_IsoGlu_C18_Diacid)]-F-E-P—R—S—K—F—C—NH2 [Compound 209],222

# Same assay, conditions: read-out: T47D IC50, Table 2C, class symbols
row,Substance,IC50 [nM]
1,[Isovaleric Acid]-E-A—H-[Dpa]-P—C—I-[(D)Lys]-[bhPhe]-[Lys(Ahx_Palm)]-[(D)Lys]-C—NH2 [Compound 612],11 to 100
2,[Isovaleric Acid]-E-S-H-[Dpa]-P—C—I-[(D)Lys]-[bhPhe]-[Lys(PEG12_Palm)]-R—C—NH2 [Compound 605],11 to 100
